The target of this test is T1, DCLK1 (Homo sapiens, UniProt O15075).
T1 construct: purchased Eurofins (Belgium), contract assay service
T1 sequence (O15075 1-740): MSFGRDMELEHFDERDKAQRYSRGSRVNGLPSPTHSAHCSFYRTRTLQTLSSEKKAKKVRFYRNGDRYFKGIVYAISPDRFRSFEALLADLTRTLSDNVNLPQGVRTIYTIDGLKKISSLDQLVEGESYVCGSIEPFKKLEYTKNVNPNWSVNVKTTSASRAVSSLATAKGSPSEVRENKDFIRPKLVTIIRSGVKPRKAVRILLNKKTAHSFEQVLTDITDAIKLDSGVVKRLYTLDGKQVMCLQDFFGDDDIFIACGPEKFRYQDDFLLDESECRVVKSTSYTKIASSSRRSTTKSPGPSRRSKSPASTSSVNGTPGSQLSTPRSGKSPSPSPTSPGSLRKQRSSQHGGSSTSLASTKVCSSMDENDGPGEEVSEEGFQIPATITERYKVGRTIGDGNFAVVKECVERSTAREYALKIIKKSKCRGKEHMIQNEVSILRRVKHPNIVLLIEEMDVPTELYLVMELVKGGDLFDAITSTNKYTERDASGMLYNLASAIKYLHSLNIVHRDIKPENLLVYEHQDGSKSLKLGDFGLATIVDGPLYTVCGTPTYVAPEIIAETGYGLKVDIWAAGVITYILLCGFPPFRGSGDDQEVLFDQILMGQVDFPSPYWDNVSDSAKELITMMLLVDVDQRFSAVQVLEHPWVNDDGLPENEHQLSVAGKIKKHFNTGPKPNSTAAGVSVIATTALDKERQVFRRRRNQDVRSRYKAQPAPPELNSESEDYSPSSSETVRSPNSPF
The experiment in a line: In vitro DCLK1 kinase activity assay (Eurofins). The format is biochemical. The text has this:
Eurofins (Belgium) conducted in vitro DCLK1 and LRRK2 kinase activity assays. Compounds were sent as dry powders to Eurofins.

Take `CCOc1cc(N2CCC(O)CC2)ccc1Nc1ncc2c(n1)N(C)c1ccccc1C(=O)N2C` [XMD8-92, reference compound]: the “Selectivity (IC50 of DCLK1/IC50 of LRRK2)” value (ratio of IC50 values) was determined as 0.74. Under “ratio of remaining activities at 1 uM”, the “Selectivity (DCLK1 activity/LRRK2 activity)” value is given as 0.78.

For the origin of these results see paper PMC11792831, “Design and synthesis of doublecortin-like kinase 1 inhibitors and their bioactivity evaluation” (Journal of Enzyme Inhibition and Medicinal Chemistry, 2023).
